Values quoted from earlier work as cited in article PMC4594927 (PLoS ONE, 2015).

Chains of the proteins cited; added tags and fusions are not shown. Lines headed by an entry give the natural chain unless they say otherwise; changes in a name come on top.
UniProt Q8T6T2: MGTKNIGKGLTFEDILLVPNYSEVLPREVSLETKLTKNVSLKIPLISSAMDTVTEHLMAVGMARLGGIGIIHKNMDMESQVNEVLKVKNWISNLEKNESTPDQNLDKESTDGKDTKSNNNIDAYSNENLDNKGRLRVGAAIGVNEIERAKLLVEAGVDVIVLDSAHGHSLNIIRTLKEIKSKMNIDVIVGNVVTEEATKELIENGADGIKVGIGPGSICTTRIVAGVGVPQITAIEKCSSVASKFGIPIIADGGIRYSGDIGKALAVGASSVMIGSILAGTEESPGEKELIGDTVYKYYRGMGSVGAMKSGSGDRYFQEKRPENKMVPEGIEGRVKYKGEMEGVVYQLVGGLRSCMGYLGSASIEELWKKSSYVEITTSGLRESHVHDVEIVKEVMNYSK

Target: CpIMPDH (Cryptosporidium parvum, UniProt Q8T6T2)
Details: cited from earlier work

## C=C(C)c1cccc(C(C)(C)NC(=O)Nc2ccc(OC)cc2)c1 [P102]
  Ki: 9 ± 1 nM
